Measured values as given in US20220291203A1, “METHODS OF MEASURING CELL-MEDIATED KILLING BY EFFECTORS” (IMMUNOWAKE INC., priority 2019, published 2022).

Key:
Type in all cases: cell-based, human
[1] = tested on: dual reporter MCF-7 cells; experiment: Antibody-mediated killing by unstimulated PBMCs (Example 6); conditions: normal HER2 expression, 200-0.0128 ng/mL
Method: (§1) Dual reporter tumor cell lines SK-BR-3 (high HER2 expression), LnCaP (intermediate HER2 expression), MDA-MB-231 (low HER2 expression), MCF-7 (normal HER2 expression similar to healthy tissue cells), and MDA-MB-468 (no HER2 expression) as constructed in Example 3 expressing various amounts of HER2 antigen were plated into wells of a %-well conical bottom plate at 5,000 tumor cells/well in the presence of 5,000 or 50,000 unstimulated PBMCs (effector cells), resulting in a 1:1 or 1:10 ratio of tumor cells to effector cells. […] Control wells were not provided with antibodies. The cell-killing reaction was incubated for 48 hours. After 48-hour incubation, doxycycline was added to the mixture of cells to induce expression of the dual reporters from live dual reporter tumor cells. 24 hours after doxycycline induction, cell culture media was taken, and luminescence was monitored on a GloMax Discover Microplate Reader. The dose-response curves were generated from two replicate measurements. As shown in FIGS. 7A-7D, cell killing responses based on the methods of the disclosure is dependent on type of antibody used, dose of the antibody, antigen expression level of the tumor cells, and the effector to target ratio.

[2] = tested on: dual reporter MDA-MB-468 cells; experiment: as above; conditions: no HER2 expression, 200-0.0128 ng/mL
Method: as §1

[3] = tested on: dual reporter MDA-MB-468 cells; experiment: Tumor antigen level and NK92 ADCC (Example 19); conditions: no HER2 expression; control
Method: (§2) After 8-hour incubation, doxycycline was added (t=8 hr) to the mixture of cells to induce expression of the dual reporters. Cell culture media was taken one day post-incubation of antibody/tumor cells/NK cells (t=24 hr), and luminescence was measured on a GloMax Discover Microplate Reader. Percent cell survival was defined as luminescence readout at various antibody concentrations relative to the average readout with no antibody. The dose-response curves were generated from three replicate measurements.

[4] = tested on: dual reporter SK-BR-3 cells; experiment: NK92 ADCC in presence of cancer patient serum (Example 21); conditions: 10% FBS control vs 1/10 patient serum
[5] = tested on: dual reporter tumor cells (SK-BR-3, LnCaP, MDA-MB-231, MCF-7, and MDA-MB-468); experiment: Tumor antigen level and NK92 ADCC (Example 19), cell line panel; conditions: NK92 (CD16+) 3E:1T; 1000-0.32 ng/mL; dox t=8 hr, read t=24 hr
Method: as §2
Expression of tumor antigen (HER2) was measured using FACS. […] Cells were incubated with a secondary antibody targeting anti-human IgG1 for 30 minutes at 4° C., and washed three times before analysis with Guava® easyCyte.

[6] = tested on: dual reporter SK-BR-3 cells; experiment: Herceptin/PBMC killing under varied total reaction time (Example 11); conditions: unstimulated PBMCs 3E:1T; dox at 0, 12, 24, 48 hr; luc at 24, 48 hr
Excerpt: This example illustrates the benefit of using secreted inducible reporters in studying cell-mediated cytotoxicity. Since secreted reporter proteins accumulate in the media overtime, multiple measurements can be taken from the same sample well. This allows us to analyze how cell-mediated cytotoxicity changes over the total reaction time and under different reporter induction timing. […] The timing of the reporter expression phase was changed by adding doxycycline at different time points: 0, 12, 24, and 48 hours post-incubation of antibody, tumor cells, and PBMCs (dox@0, 12, 24, or 48 hr in FIG. 12A). snLuciferase was measured 24 and 48 hours after adding doxycycline (luc@t24 hr and luc@48 hr in FIG. 12A). Total reaction time was calculated as the incubation time before adding doxycycline, plus doxycycline induction time before measuring snLuciferase (indicated on top of each panel in FIG. 12A). The dose-response curves were generated from two replicates. […] If the total reaction time is too short, the detected cell-killing effect could be weak even if report expression is induced early on, because not enough time has passed for cytolysis to occur (compare luc@24 hr and dox@0 hr with others in FIGS. 12A-12B). […]

3D LnCaP spheroids = experiment: NK92 ADCC in 3D tumor spheroids (Example 22); conditions: NK92 (CD16+) 3E:1T; 1000-0.32 ng/mL; t=24, 48, 72 hrs
Method: 3D tumor spheroids were generated by culturing 10,000 dual reporter LnCaP cells as constructed in Example 3 in ultra-low attachment plates for 3 days. […] After 12-hour incubation, doxycycline was added (t=12 hr) to the reaction to induce expression of the dual reporters from live tumor cells. Cell culture media sample was taken every day post-induction with doxycycline (t=24, 48, and 72 hrs), and luminescence was measured on a GloMax Discover Microplate Reader. EGFP signal was monitored at the same time points using a Nikon Ellipse TE2000-U microscope. Percent cell survival was defined as signal readout at various antibody concentrations relative to the average readout with no antibody. The dose-response curves were generated from three replicate measurements.

[7] = tested on: dual reporter SK-BR-3 cells; experiment: Reporter induction time in NK92 ADCC (Example 18)
Method: The timing of the reporter expression phase was changed by adding doxycycline at different time points: −24 hours (dox induction in dual reporter SK-BR-3 cells 24 hours before co-incubating antibody/tumor cells/NK92, to mimic “constitutive” expression), and 0, 4, and 12 hours post-incubation of antibody/tumor cells/NK92. 24 hours after doxycycline induction, media was taken from each well and snLuciferase luminescence was measured using a GloMax Discover Microplate Reader, and Nikon Ellipse TE2000-U microscope was used to capture EGFP signal. The dose-response curves were generated from three replicates. Percent cell survival was defined as snLuciferase readout (RLU) at various antibody concentrations relative to the average readout with no antibody.

[8] = tested on: dual reporter SK-BR-3 cells; experiment: Herceptin ADCC by NK92 cells, snLuciferase readout (Example 4); conditions: NK92 effector cells, E:T 3:1; 8 hours incubation, snLuciferase 24 hours after doxycycline
Method: 15,000 NK92 cells (effector cells) and 5,000 dual reporter SK-BR-3 cells (breast cancer tumor cells) as constructed in Example 2 were plated in a 96-well conical bottom plate, resulting in a 3:1 effector cell to tumor cell ratio. […] Control wells were not provided with Herceptin®. The cell-killing reaction was incubated for 8 hours. After the 8 hours incubation, doxycycline was added to the cell mixture to induce expression of the dual reporters from remaining dual reporter SK-BR-3 cells. 24 hours after doxycycline induction, snLuciferase was measured using a GloMax Discover Microplate Reader. Percent cell survival was calculated as the ratio of relative light unit (RLU) in Herceptin®-containing wells to the RLU in the Herceptin®-free control wells.

[9] = tested on: dual reporter SK-BR-3 cells; experiment: E:T ratio and ADCC by donor PBMCs (Example 20)
Method: as §2, with “cells/PBMCs” for “cells/NK cells”

[10] = tested on: dual reporter SK-BR-3 cells; experiment: Herceptin ADCC by NK92 cells, GFP readout (Example 5); conditions: NK92, E:T 3:1; 10 ng/mL-0.31 ng/mL; 8-hour incubation, GFP 24 hours after doxycycline
Method: 15,000 NK92 cells (effector cells) and 5,000 dual reporter SK-BR-3 cells (tumor cells) as constructed in Example 2 were plated in a 96-well conical bottom plate, resulting in a 3:1 effector cell to tumor cell ratio. […] The cell killing reaction was incubated for 8 hours. After 8-hour incubation, doxycycline was added to the mixture of cells to induce expression of the dual reporters from remaining dual reporter SK-BR-3 cells. 24 hours after doxycycline induction, the tumor cells were analyzed using a Nikon Ellipse TE2000-U microscope for GFP, and snLuciferase was measured using a GloMax Discover Microplate Reader. The GFP signal was quantified using ImageJ. Percent cell survival was calculated as the ratio of corrected total cell fluorescence (CTCF) in Herceptin®-containing wells to the CTCF in the Herceptin®-free control wells.

Substance: trastuzumab [Herceptin®]
- antibody concentration-dependent effector cell killing [1]: did not mediate antibody concentration-dependent ADCC
- antibody concentration-dependent effector cell killing [2]: did not mediate antibody concentration-dependent ADCC
- NK cell ADCC [3]: without observed ADCC
- ADCC with control serum versus patient serum [4]: did not significantly differ
- NK cell ADCC, dependence on concentration and HER2 level [5]: antibody concentration-dependent and antigen expression level-dependent manner
- dose-response of cell killing versus total reaction time [6]: the dose-response curves can change over time
- NK cell-mediated ADCC, snLuciferase signal (3D LnCaP spheroids): antibody concentration dependent manner
- NK cell ADCC ([7]; NK92 (CD16+) 3E:1T, 200-0.0128 ng/mL): antibody-concentration dependent manner
- ADCC detected versus constitutive expression or dox@0 hr ([7]; doxycycline added at 4 hrs or 12 hrs post-incubation): could achieve stronger ADCC
- ADCC on dual reporter SK-BR-3 cells (percent cell survival, snLuciferase) [8]: concentration-dependent ADCC
- ADCC by donor unstimulated PBMCs ([9]; 5E:1T ratio): Partial response
- ADCC by donor unstimulated PBMCs ([9]; 10E:1T): all patients showed ADCC
- ADCC by donor unstimulated PBMCs ([9]; 25E:1T): all patients showed ADCC
- ADCC, GFP signal versus antibody concentration [10]: dose-dependent relationship between GFP signal and antibody concentration
